The record followed here is US6642227B2, “Inhibitors of c-Jun N-terminal kinases (JNK) and other protein kinases” (Vertex Pharmaceuticals Incorporated, priority 2001, dated 2003).

The chains behind the UniProt entries cited, without tags or fusion partners. Residues count along the entry.
UniProt P53779, 40-402 limits assumed: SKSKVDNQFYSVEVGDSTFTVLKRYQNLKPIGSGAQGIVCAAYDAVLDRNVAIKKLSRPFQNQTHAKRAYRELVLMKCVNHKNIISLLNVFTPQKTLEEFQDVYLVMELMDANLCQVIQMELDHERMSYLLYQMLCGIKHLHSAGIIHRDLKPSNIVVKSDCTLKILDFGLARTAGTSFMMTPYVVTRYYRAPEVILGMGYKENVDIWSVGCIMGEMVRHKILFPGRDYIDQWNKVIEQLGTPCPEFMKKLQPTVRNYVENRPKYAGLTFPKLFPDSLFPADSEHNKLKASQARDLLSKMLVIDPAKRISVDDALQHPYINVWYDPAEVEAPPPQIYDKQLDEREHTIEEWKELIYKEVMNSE
UniProt P12931, whole entry: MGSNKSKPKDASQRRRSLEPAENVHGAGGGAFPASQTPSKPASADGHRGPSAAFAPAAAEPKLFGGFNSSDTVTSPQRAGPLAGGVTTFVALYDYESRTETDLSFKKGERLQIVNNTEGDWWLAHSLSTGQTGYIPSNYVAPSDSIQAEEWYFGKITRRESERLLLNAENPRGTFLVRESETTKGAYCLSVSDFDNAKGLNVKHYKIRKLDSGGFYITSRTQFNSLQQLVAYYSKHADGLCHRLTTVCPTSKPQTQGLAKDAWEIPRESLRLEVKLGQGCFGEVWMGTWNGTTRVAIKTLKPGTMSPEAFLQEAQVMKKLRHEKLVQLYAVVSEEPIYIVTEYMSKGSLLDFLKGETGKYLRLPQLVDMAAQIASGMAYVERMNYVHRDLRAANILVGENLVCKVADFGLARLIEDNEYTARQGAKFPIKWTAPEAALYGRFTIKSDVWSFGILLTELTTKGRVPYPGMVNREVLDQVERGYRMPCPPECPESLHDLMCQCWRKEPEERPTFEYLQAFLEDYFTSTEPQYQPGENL

Each structure is given as a SMILES string.

The Ki is the dissociation constant of the complex between target and ligand, obtained from inhibition or displacement.

One test deals with activated JNK3 (Homo sapiens, UniProt P53779). Description: JNK inhibition assay (spectrophotometric coupled-enzyme assay). Particulars: read-out: JNK3 Activity (Ki class A-C); activated JNK3 10 nM, 10 μM ATP, 30° C. It is filed as biochemical. The source says:
A BLAST search of the EST database using the published JNK3α1 cDNA as a query identified an EST clone (#632588) that contained the entire coding sequence for human JNK3α1. Polymerase chain reactions (PCR) using pfu polymerase (Strategene) were used to introduce restriction sites into the cDNA for cloning into the pET-15B expression vector at the NcoI and BamHI sites. The protein was expressed in E. coli. Due to the poor solubility of the expressed full-length protein (Met 1-Gln 422), an N-terminally truncated protein starting at Ser residue at position 40 (Ser 40) was produced. This truncation corresponds to Ser 2 of JNK1 and JNK2 proteins, and is preceded by a methionine (initiation) and a glycine residue. The glycine residue was added in order to introduce an NcoI site for cloning into the expression vector. In addition, systematic C-terminal truncations were performed by PCR to identify a construct that give rise to diffraction-quality crystals. One such construct encodes amino acid residues Ser40-Glu402 of JNK3α1 and is preceded by Met and Gly residues.
The construct was prepared by PCR using deoxyoligonucleotides: 5′ […] 3′ (forward primer with initiation codon underlined)(SEQ ID NO:1) and 5′ […] 3′ (reverse primer with stop codon underlined)(SEQ ID NO:2) as primers and was confirmed by DNA sequencing. […]

Another test concerns the target human Src kinase (Homo sapiens, UniProt P12931). Description: Src inhibition assay (A: radioactivity-based or B: spectrophotometric coupled-enzyme assay). Particulars: assay A or B not specified; inhibitor concentration not given. Here is the method:
The compounds were evaluated as inhibitors of human Src kinase using either a radioactivity-based assay or spectrophotometric assay.
The compounds were assayed as inhibitors of full length recombinant human Src kinase (from Upstate Biotechnology, cat. no. 14-117) expressed and purified from baculo viral cells. Src kinase activity was monitored by following the incorporation of ^33p from ATP into the tyrosine of a random poly Glu-Tyr polymer substrate of composition, Glu:Tyr=4:1 (Sigma, cat. no. P-0275). The following were the final concentrations of the assay components: 0.05 M HEPES, pH 7.6, 10 mM MgCl2, 2 mM DTT, 0.25 mg/ml BSA, 10 μM ATP (1-2 uCi ^33P-ATP per reaction), 5 mg/ml poly Glu-Tyr, and 1-2 units of recombinant human Src kinase. In a typical assay, all the reaction components with the exception of ATP were pre-mixed and aliquoted into assay plate wells.
Inhibitors dissolved in DMSO were added to the wells to give a final DMSO concentration of 2.5%. The assay plate was incubated at 30° C. for 10 min before initiating the reaction with ^33P-ATP. After 20 min of reaction, the reactions were quenched with 150 μl of 10% trichloroacetic acid (TCA) containing 20 mM Na3PO4. The quenched samples were then transferred to a 96-well filter plate (Whatman, UNI-Filter GF/F Glass Fiber Filter, cat no. 7700-3310) installed on a filter plate vacuum manifold. Filter plates were washed four times with 10% TCA containing 20 mM Na3PO4 and then 4 times with methanol. 200 μl of scintillation fluid was then added to each well. The plates were sealed and the amount of radioactivity associated with the filters was quantified on a TopCount scintillation counter. The radioactivity incorporated was plotted as a function of the inhibitor concentration. The data was fitted to a competitive inhibition kinetics model to get the Ki for the compound.
The ADP produced from ATP by the human recombinant Src kinase-catalyzed phosphorylation of poly Glu-Tyr substrate was quanitified using a coupled enzyme assay (Fox et al (1998) Protein Sci 7, 2249). In this assay one molecule of NADH is oxidised to NAD for every molecule of ADP produced in the kinase reaction. The disappearance of NADH can be conveniently followed at 340 nm.
The following were the final concentrations of the assay components: 0.025 M HEPES, pH 7.6, 10 mM MgCl2, 2 mM DTT, 0.25 mg/ml poly Glu-Tyr, and 25 nM of recombinant human Src kinase. Final concentrations of the components of the coupled enzyme system were 2.5 mM phosphoenolpyruvate, 200 μM NADH, 30 μg/ml pyruvate kinase and 10 μg/ml lactate dehydrogenase.
In a typical assay, all the reaction components with the exception of ATP were pre-mixed and aliquoted into assay plate wells. Inhibitors dissolved in DMSO were added to the wells to give a final DMSO concentration of 2.5%. The assay plate was incubated at 30 C. for 10 min before initiating the reaction with 100 μM ATP. The absorbance change at 340 nm with time, the rate of the reaction, was monitored on a molecular devices plate reader. The data of rate as a function of the inhibitor concentration was fitted to compettive inhibition kinetics model to get the Ki for the compound.

On to `CCOc1sc(-c2ccnc(Nc3ccccc3)n2)c(-c2ccc(C(F)(F)F)cc2)c1C#N`, for which the Ki at activated JNK3 lay in the range of 100 to 1000 nM. The “Src Activity (percent inhibition class D-F)” value at human Src kinase is “F (compounds having an activity designated as “F” provided a provided a percent inhibition of between 67% and 100%)”.
